Antibody variant affinities, Ab-14 light chain, assay 1

The target is the same throughout: PDVDLGDISGINAS, from the HR2 region of SARS-CoV-2 spike.

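The parent was found by panning a naive human phage display library on the peptide. In library AAYL50, one, two or three CDR residues were substituted; doubles and triples were drawn at random. AlphaSeq pools MATa yeast showing the antibodies with MATalpha yeast showing the peptide. The frequency of each diploid, read from paired DNA barcodes, reflects how well the two displayed proteins bind. Scores were corrected for input abundance and mapped to Kd with protein pairs of known affinity run in the same pool. There are three technical replicates.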

Parent scFv Ab-14: VH joined to VL by three GGGGS repeats. Changes lie in the light chain CDRs alone.
VH: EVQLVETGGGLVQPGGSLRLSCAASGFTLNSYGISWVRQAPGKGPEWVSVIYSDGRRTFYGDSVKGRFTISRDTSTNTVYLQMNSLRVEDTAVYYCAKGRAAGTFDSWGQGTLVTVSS
VL: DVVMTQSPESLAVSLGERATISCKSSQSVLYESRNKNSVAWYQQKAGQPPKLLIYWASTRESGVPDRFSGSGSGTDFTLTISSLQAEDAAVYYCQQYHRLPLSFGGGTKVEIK

Substitutions are numbered in sequence along the VL above, starting at 1 (not Kabat). This list gathers variants with a substitution at V29 (VL, numbered from residue 1). Kd is apparent (estimated from mating counts) and averaged on the log scale over replicates with a signal. Smaller is tighter. An entry "nd" has no value in the source: the pair was not observed among the diploids in any replicate. This suggests poor binding but is not conclusive. In this assay the parent's reference entry averaged 4.4 nM; its copy inside this library read 48 nM. Three control strains display no target. For library AAYL50, 18% of the pairings with them gave a signal, with a median of 15 µM and one signal in twenty below 970 nM, so weak values seen in few replicates may be background.

The variant V29N E61I H98M gave 18 µM (1 of 3 replicates). The variant Q27W V29S N35Y showed 5.2 nM (3 of 3 replicates). For V29A L30N S62G, the assay gave 57 nM (3 of 3 replicates). The variant V29D T59C Q96S showed 15 nM (3 of 3 replicates). With V29D R34D the result was 2.5 nM (3 of 3 replicates).

The variant K24L V29M S62F showed 55 nM (3 of 3 replicates). With V29L A57N Y97N the result was 270 µM (1 of 3 replicates). The variant V29H N37V T59W showed 2.8 µM (1 of 3 replicates). The variant V29C E61Q gave 15 nM (3 of 3 replicates). For Q27L V29M K36D, the assay gave 2.2 nM (3 of 3 replicates).

For V29H S58W Q95V, the assay gave nd (0 of 3 replicates). The variant V29S E32A A40Y gave nd (0 of 3 replicates). With S25W V29K R34W the result was 960 nM (1 of 3 replicates). The variant V29S T59G Q95M gave 54 µM (1 of 3 replicates). The variant K24S V29K S38P gave 6.3 µM (3 of 3 replicates).

The variant S26H V29Y T59F gave 26 nM (2 of 3 replicates). The variant V29G T59V L100C gave 12 µM (1 of 3 replicates). The variant V29D N37P gave 54 nM (3 of 3 replicates). With V29W A57N T59V the result was 590 nM (3 of 3 replicates). The variant V29N R99D S103P showed nd (0 of 3 replicates).

With V29P K36A T59C the result was 570 nM (3 of 3 replicates). For V29H Q95N L100H, the assay gave 6.1 nM (3 of 3 replicates). The variant S25T V29C R34L gave 4.2 nM (3 of 3 replicates). For K24P V29C H98F, the assay gave nd (0 of 3 replicates). The variant V29N S38E P101W showed nd (0 of 3 replicates).

The variant V29N Y31H Q96Y showed 270 nM (3 of 3 replicates). With V29T W56E L100R the result was 14 µM (2 of 3 replicates). The variant V29K T59V L102R showed nd (0 of 3 replicates). For S28L V29I, the assay gave 3.7 µM (2 of 3 replicates). The variant K24Q Q27W V29Y showed 190 nM (3 of 3 replicates).

With V29Q R34H H98K the result was 4.7 nM (3 of 3 replicates). The variant V29T E32A L100E showed nd (0 of 3 replicates). With V29T L30K S103T the result was 32 nM (3 of 3 replicates). For V29R R99C P101C, the assay gave 120 nM (3 of 3 replicates). The variant V29K E32D L100C showed 140 µM (1 of 3 replicates).

For K24T V29Q E61S, the assay gave 380 nM (3 of 3 replicates). The variant V29E L100E gave 19 nM (3 of 3 replicates). The variant V29D Y31P Y97S showed nd (0 of 3 replicates). The variant V29G S38T S103L showed 12 nM (3 of 3 replicates).

6 of these entries, quoted again:

The variant K24T V29Q E61S showed 380 nM (3 of 3 replicates).
The variant V29D T59C Q96S showed 15 nM (3 of 3 replicates).
The variant V29D N37P showed 54 nM (3 of 3 replicates).
The variant V29L A57N Y97N showed 270 µM (1 of 3 replicates).
The variant S25T V29C R34L showed 4.2 nM (3 of 3 replicates).
The variant V29G S38T S103L showed 12 nM (3 of 3 replicates).

Values reported by Engelhart et al. 2022, doi:10.1038/s41597-022-01779-4 (FLAb copy).